Assay results taken from patent US7074789B2, “Kinase inhibitors” (Amgen Inc., priority 1999, dated 2006).

Sequences of proteins named here, by UniProt entry; tags and fusion partners are left off. Residues count along the entry.
UniProt P06239, whole entry: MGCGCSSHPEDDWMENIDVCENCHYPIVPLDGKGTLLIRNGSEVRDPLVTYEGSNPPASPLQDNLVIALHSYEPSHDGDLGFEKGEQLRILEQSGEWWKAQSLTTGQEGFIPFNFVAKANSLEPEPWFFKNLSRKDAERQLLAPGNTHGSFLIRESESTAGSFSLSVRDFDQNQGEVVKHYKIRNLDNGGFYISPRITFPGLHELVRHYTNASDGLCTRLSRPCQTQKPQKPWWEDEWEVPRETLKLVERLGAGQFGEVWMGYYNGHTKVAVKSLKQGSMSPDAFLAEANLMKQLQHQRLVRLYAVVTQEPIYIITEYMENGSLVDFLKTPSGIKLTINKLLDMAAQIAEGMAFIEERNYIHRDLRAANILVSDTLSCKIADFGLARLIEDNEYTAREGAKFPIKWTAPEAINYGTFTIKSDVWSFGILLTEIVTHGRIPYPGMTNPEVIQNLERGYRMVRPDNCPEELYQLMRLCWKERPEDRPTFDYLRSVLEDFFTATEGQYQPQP
UniProt P43403, whole entry: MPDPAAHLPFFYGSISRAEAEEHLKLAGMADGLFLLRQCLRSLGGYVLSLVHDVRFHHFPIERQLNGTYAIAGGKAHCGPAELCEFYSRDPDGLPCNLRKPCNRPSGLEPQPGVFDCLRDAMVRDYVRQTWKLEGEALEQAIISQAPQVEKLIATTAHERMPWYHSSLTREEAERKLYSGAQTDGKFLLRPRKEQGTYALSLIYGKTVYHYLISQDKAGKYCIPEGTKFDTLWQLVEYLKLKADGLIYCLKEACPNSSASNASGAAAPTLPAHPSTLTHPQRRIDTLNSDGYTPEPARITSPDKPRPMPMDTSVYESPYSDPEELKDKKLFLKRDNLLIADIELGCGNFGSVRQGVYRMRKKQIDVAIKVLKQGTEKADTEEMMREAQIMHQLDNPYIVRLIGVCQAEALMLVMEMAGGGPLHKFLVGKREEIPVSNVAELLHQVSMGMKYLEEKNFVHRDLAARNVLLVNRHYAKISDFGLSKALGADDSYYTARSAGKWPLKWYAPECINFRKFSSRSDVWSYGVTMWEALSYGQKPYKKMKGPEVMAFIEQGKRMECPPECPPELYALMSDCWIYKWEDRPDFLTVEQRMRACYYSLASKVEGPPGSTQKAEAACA
UniProt P04626, 23-1255 limits assumed: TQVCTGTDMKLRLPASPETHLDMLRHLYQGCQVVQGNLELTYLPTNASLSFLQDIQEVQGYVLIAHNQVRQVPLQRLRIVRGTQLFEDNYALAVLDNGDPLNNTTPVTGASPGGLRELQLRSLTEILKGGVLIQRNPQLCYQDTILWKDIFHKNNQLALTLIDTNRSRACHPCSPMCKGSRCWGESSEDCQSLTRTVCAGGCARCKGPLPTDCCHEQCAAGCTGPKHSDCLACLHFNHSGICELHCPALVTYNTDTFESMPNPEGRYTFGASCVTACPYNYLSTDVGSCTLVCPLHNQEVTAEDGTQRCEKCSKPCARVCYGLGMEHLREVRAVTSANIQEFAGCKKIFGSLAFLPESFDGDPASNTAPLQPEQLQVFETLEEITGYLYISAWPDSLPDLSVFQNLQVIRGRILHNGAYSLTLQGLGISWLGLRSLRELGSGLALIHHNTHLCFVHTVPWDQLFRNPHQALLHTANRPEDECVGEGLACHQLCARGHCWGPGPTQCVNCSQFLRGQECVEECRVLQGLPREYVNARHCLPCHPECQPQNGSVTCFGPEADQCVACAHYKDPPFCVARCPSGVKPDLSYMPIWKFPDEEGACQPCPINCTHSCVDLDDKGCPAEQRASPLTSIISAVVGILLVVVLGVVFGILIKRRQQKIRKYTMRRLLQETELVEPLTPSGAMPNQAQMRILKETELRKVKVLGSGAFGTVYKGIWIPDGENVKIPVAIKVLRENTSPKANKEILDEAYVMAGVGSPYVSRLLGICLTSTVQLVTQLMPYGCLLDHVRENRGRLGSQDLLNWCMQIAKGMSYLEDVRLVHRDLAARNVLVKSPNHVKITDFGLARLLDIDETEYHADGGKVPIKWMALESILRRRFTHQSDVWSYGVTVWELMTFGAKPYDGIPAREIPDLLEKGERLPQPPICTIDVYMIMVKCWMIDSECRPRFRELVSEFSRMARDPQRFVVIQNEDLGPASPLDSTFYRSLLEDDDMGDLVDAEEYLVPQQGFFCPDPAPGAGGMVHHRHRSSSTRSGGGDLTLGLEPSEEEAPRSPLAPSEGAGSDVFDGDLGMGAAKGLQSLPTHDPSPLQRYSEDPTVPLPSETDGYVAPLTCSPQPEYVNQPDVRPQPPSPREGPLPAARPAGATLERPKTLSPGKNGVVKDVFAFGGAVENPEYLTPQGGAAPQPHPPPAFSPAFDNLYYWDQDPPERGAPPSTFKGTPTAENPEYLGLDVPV
UniProt P08581, 25-1390 limits assumed: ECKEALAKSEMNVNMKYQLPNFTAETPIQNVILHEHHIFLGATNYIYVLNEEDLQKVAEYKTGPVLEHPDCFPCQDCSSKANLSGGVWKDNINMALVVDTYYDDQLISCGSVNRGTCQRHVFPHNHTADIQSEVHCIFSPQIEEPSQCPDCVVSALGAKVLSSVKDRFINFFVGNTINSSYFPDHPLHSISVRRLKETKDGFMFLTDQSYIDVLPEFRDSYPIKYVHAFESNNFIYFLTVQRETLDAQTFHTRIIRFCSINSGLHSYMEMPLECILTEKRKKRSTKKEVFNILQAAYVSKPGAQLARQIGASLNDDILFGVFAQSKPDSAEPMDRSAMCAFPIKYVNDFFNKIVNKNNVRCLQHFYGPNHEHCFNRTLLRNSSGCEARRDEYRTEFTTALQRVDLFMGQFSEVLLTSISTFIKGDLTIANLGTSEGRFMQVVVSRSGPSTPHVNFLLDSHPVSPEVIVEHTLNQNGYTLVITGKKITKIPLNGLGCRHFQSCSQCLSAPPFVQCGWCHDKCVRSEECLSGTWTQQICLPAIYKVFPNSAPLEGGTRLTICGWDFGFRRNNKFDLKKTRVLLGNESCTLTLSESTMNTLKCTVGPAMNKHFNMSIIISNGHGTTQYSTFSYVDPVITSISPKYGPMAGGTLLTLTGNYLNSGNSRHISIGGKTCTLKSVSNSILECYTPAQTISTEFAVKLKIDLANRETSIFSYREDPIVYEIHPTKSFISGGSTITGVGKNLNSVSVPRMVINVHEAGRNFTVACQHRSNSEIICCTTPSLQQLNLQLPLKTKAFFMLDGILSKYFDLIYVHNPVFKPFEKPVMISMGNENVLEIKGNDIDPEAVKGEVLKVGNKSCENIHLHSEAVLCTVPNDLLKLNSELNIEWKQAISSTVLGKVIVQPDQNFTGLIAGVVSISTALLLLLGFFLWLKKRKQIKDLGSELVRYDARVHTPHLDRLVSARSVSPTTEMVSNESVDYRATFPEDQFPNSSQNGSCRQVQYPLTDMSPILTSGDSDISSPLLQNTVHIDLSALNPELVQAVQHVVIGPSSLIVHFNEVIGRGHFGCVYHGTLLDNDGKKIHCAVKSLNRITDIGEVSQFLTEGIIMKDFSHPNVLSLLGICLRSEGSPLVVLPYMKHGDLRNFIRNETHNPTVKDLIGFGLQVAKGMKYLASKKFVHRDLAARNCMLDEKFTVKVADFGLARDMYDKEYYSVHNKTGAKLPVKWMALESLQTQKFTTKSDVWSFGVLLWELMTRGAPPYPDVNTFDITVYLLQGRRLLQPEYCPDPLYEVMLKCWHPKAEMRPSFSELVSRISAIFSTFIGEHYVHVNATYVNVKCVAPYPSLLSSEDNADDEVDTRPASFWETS
UniProt Q9Y243, whole entry: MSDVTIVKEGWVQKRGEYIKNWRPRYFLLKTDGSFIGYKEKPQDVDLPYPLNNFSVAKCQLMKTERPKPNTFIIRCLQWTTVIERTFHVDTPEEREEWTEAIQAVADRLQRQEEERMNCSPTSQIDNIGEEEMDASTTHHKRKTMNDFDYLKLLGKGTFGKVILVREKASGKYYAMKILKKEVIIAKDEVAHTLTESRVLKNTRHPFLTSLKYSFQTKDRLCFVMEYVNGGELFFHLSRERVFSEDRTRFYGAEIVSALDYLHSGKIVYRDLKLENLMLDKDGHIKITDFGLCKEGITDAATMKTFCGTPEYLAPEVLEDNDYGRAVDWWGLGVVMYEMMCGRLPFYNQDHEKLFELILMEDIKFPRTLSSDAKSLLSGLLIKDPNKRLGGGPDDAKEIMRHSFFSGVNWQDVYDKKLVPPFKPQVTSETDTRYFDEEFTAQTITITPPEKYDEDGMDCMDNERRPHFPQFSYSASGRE
UniProt P09619, 33-1106 limits assumed: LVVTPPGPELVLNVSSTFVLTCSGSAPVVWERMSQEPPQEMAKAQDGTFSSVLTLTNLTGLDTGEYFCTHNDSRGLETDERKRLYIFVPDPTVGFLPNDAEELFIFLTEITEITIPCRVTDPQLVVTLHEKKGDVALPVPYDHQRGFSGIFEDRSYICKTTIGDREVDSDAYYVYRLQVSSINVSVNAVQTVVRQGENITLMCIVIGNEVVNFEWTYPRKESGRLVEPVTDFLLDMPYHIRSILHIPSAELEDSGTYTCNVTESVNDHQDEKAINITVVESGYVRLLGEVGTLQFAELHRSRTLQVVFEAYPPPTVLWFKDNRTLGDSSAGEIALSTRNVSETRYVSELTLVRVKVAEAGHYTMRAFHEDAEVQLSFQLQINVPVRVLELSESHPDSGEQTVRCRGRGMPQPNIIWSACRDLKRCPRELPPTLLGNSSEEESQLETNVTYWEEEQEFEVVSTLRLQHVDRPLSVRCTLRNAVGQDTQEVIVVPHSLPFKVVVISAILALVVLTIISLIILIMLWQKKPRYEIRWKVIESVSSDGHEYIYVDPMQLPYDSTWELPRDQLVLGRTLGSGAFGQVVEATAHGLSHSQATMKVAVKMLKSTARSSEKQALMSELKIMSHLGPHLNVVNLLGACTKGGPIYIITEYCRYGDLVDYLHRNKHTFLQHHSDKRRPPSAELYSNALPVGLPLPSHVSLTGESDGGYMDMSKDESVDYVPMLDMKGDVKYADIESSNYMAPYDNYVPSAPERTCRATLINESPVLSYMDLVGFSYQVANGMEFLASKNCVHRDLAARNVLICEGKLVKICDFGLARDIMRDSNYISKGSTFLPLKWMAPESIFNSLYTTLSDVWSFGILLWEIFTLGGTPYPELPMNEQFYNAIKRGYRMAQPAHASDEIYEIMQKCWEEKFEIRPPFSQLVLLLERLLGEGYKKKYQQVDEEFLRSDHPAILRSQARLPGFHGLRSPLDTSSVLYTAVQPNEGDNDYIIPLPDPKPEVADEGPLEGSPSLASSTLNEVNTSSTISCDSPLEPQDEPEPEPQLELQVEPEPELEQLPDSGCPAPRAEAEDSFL
UniProt Q02763, 23-1124 limits assumed: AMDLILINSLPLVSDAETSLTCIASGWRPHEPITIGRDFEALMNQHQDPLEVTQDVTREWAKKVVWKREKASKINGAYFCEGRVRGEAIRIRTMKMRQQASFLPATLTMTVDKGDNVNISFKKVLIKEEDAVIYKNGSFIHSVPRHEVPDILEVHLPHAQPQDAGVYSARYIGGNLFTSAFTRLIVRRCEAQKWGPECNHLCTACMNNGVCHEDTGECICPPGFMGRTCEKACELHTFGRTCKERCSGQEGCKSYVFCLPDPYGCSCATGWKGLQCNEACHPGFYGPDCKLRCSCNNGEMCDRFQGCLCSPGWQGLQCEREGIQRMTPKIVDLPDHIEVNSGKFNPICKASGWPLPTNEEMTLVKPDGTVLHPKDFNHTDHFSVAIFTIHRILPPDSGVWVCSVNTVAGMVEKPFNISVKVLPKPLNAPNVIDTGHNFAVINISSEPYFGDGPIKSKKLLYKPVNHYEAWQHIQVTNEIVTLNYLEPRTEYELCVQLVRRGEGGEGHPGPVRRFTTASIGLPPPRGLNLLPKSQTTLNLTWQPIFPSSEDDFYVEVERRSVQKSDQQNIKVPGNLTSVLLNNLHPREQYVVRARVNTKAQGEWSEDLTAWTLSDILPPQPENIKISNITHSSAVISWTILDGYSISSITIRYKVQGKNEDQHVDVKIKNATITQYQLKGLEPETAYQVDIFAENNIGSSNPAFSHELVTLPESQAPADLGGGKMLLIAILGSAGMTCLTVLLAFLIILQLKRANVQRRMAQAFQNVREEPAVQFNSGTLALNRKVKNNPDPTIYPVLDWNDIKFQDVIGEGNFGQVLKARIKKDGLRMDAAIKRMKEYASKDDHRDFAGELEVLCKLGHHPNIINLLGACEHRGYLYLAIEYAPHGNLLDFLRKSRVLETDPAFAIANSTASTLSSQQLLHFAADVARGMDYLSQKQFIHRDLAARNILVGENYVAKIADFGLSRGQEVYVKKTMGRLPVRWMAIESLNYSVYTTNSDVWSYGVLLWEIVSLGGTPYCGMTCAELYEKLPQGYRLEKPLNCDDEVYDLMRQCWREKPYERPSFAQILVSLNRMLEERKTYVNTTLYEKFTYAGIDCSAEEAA

How the values were obtained:
[1] = target: Lck (Homo sapiens, UniProt P06239); assay: Kinase inhibition assay (33P transfer), Lck; format: biochemical
[2] = target: Zap-70 (Homo sapiens, UniProt P43403); assay: Kinase inhibition assay (33P transfer), Zap-70; format: biochemical
[3] = target: Itk (Homo sapiens, UniProt Q08881); assay: Kinase inhibition assay (33P transfer), Itk; format: biochemical
[4] = target: EGFR (Homo sapiens, UniProt P00533); assay: Kinase inhibition assay (33P transfer), EGFR; format: biochemical
[5] = target: ErbB2 (Homo sapiens, UniProt P04626); assay: Kinase inhibition assay (33P transfer), ErbB2
[6] = target: Kdr (Homo sapiens, UniProt P35968); assay: Kinase inhibition assay (33P transfer), Kdr; format: biochemical
[7] = target: c-Met (Homo sapiens, UniProt P08581); assay: Kinase inhibition assay (33P transfer), c-Met; format: biochemical
[8] = target: AKT (Homo sapiens, UniProt Q9Y243); assay: Kinase inhibition assay (33P transfer), AKT
[9] = target: T1, IGFR-1 (Homo sapiens, UniProt P08069); assay: Kinase inhibition assay, IGFR-1 (Table 2); format: biochemical; conditions: Table 2, kinase inhibition class
[10] = target: PDGFRB (Homo sapiens, UniProt P09619); assay: Kinase inhibition assay (33P transfer), PDGFRB; format: biochemical
[11] = target: Lyn (Homo sapiens, UniProt P07948); assay: Kinase inhibition assay (33P transfer), Lyn; conditions: Table 6, Lyn-1 kinase inhibition class
[12] = target: Src (Homo sapiens, UniProt P12931); assay: Kinase inhibition assay (33P transfer), Src; conditions: Table 6, Src-1 kinase inhibition class
[13] = target: Fyn (Homo sapiens, UniProt P06241); assay: Kinase inhibition assay (33P transfer), Fyn; format: biochemical
[14] = target: Flt-1 (Homo sapiens, UniProt P17948); assay: Kinase inhibition assay (33P transfer), Flt-1; format: biochemical
[15] = target: Tek (Homo sapiens, UniProt Q02763); assay: Kinase inhibition assay (33P transfer), Tek
[16] = target: Hck-1 (Homo sapiens, UniProt P08631); assay: Kinase inhibition assay (33P transfer), Hck; format: biochemical; conditions: Table 6, Hck-1 kinase inhibition class
[17] = target: ErbB4 (Homo sapiens, UniProt Q15303); assay: Kinase inhibition assay (33P transfer), ErbB4; format: biochemical
[18] = target: Ret-1 (Homo sapiens, UniProt P07949); assay: Kinase inhibition assay (33P transfer), Ret; format: biochemical; conditions: Table 6, Ret-1 kinase inhibition class
[19] = target: FGFR1 (Homo sapiens, UniProt P11362); assay: Kinase inhibition assay (33P transfer), FGFR1; format: biochemical
[20] = target: T1, IGFR-1; assay: Kinase inhibition assay (33P transfer), IGFR-1; format: biochemical
[21] = target: EPHB4 (Homo sapiens, UniProt P54760); assay: Kinase inhibition assay (33P transfer), EPHB4; format: biochemical
[22] = Table 2, kinase inhibition class

| SMILES | Lck-1 [1] | Zap-1 [2] | Itk-1 [3] | EGFR-1 [4, 22] | ErbB2-2 [5] | KDR-1 [6] | Met-1 [7, 22] | AKT3-1 [8, 22] | IGFR-1 [9] | PDGFRB-1 [10] | Tek-1 [15] | also measured |
| --- | --- | --- | --- | --- | --- | --- | --- | --- | --- | --- | --- | --- |
| Fc1ccc(Nc2ncnc(Cl)n2)cc1Cl | E (E>4.5 ug/mL) | E (E>4.5 ug/mL) | E (E>4.5 ug/mL) | E (E>4.5 ug/mL) | E (E>4.5 ug/mL) | E (E>4.5 ug/mL) | E (E>4.5 ug/mL) | E (E>4.5 ug/mL) | E (E>4.5 ug/mL) | E (E>4.5 ug/mL) | – | – |
| COc1cc(Nc2ncnc(-c3cccnc3NCc3ccccc3)n2)cc(OC)c1OC | B (B>0.4 and <2.4 ug/mL) | E (E>4.5 ug/mL) | E (E>4.5 ug/mL) | E (E>4.5 ug/mL) | E (E>4.5 ug/mL) | A (A<0.4 ug/mL) | E (E>4.5 ug/mL) | E (E>4.5 ug/mL) | E (E>4.5 ug/mL) | A (A<0.4 ug/mL) | E (E>4.5 ug/mL) | Lyn-1 [11]: B (B>0.4 and <2.4 ug/mL); Src-1 [12]: D (D>3.5 and <4.5 ug/mL); Fyn-1 [13]: E (E>4.5 ug/mL); Flt-1 [14]: A (A<0.4 ug/mL); Hck-1 [16]: E (E>4.5 ug/mL); ErbB4-1 [17]: E (E>4.5 ug/mL); Ret-1 [18]: A (A<0.4 ug/mL); FGFR1-1 [19]: A (A<0.4 ug/mL) |
| CCN(CC)CCCNc1cc(-c2ncnc(Nc3cc(OC)c(OC)c(OC)c3)n2)ccn1 | – | – | – | E (E>4.5 ug/mL) | – | – | E (E>4.5 ug/mL) | E (E>4.5 ug/mL) | – | – | – | Lck-1 ([1]; Table 3): E (E>4.5 ug/mL); Zap-1 ([2]; Table 3): E (E>4.5 ug/mL); Itk-1 ([3]; Table 3): E (E>4.5 ug/mL); KDR-1 ([6]; Table 3): E (E>4.5 ug/mL) |
| COc1cc(Nc2ncnc(Nc3ccc(N4CCCCC4)cc3)n2)cc(OC)c1OC | – | – | – | B (B>0.4 and <2.4 ug/mL) | – | – | B (B>0.4 and <2.4 ug/mL) | B (B>0.4 and <2.4 ug/mL) | – | E (E>4.5 ug/mL) | E (E>4.5 ug/mL) | Lck-1 ([1]; Table 3): C (C>2.4 and <3.5 ug/mL); Lyn-1 [11]: B (B>0.4 and <2.4 ug/mL); Src-1 [12]: E (E>4.5 ug/mL); Fyn-1 [13]: E (E>4.5 ug/mL); Zap-1 ([2]; Table 3): C (C>2.4 and <3.5 ug/mL); Itk-1 ([3]; Table 3): E (E>4.5 ug/mL); KDR-1 ([6]; Table 3): A (A<0.4 ug/mL); Flt-1 [14]: D (D>3.5 and <4.5 ug/mL); IGFR-1 [20, 22]: E (E>4.5 ug/mL); EPHB4-1 [21]: E (E>4.5 ug/mL); Hck-1 [16]: E (E>4.5 ug/mL); Ret-1 [18]: E (E>4.5 ug/mL); FGFR1-1 [19]: E (E>4.5 ug/mL) |
| CN(c1cccc(Cl)c1)c1ncnc(Nc2ccc3c(cnn3Cc3ccccc3)c2)n1 | – | – | – | – | D (D>3.5 and <4.5 ug/mL) | – | – | – | – | C (C>2.4 and <3.5 ug/mL) | – | Lck-1 ([1]; Table 3, class symbols): E (E>4.5 ug/mL); Zap-1 ([2]; Table 3, class symbols): E (E>4.5 ug/mL); Itk-1 ([3]; Table 3, class symbols): E (E>4.5 ug/mL); EGFR-1 ([4]; Table 2, class symbols A-E): B (B>0.4 and <2.4 ug/mL); KDR-1 ([6]; Table 3, class symbols): E (E>4.5 ug/mL); Met-1 ([7]; Table 2, class symbols A-E): E (E>4.5 ug/mL); AKT3-1 ([8]; Table 2, class symbols A-E): E (E>4.5 ug/mL); IGFR-1 ([20]; Table 2, class symbols A-E): E (E>4.5 ug/mL) |
| COc1ccc(Nc2ncnc(-n3c(N)nc4ccccc43)n2)cc1OCCN1CCOCC1 | B (B>0.4 and <2.4 ug/mL) | E (E>4.5 ug/mL) | D (D>3.5 and <4.5 ug/mL) | E (E>4.5 ug/mL) | – | – | E (E>4.5 ug/mL) | E (E>4.5 ug/mL) | B (B>0.4 and <2.4 ug/mL) | B (B>0.4 and <2.4 ug/mL) | B (B>0.4 and <2.4 ug/mL) | – |
| COc1cc(Nc2ncnc(NC(C)c3ccccc3)n2)cc(OC)c1OC (stereo not drawn) | – | E (E>4.5 ug/mL) | E (E>4.5 ug/mL) | – | – | E (E>4.5 ug/mL) | E (E>4.5 ug/mL) | E (E>4.5 ug/mL) | – | – | – | – |

Read-outs that look alike come from different tables or passages of the source.
